Among the data in US20260022127A1, “HEXACYCLIC TOPOISOMERASE INHIBITORS HAVING CYTOTOXIC ACTIVITY ON CANCER CELLS” (priority 2022, published 2026) are IC50 values, retold here.

The term IC50 denotes the midpoint of a concentration-inhibition curve. The low end stands for greater potency, the high end for weaker potency.

This assay deals with SKBR-3. As to the kind of experiment: IC50 values of Herceptin ADCs on SKBR-3 (Table 4). It counts as cell-based, human. The conditions noted are these: ADC with DAR as in column head.
Substance HER-Deruxtecan [reference compound] had an IC50 of 0.0595 nM.

HER-E-36 displayed an IC50 of 0.79 nM.

HER-E-37 gave an IC50 of 0.0478 nM.

Take HER-E-39: the IC50 was 0.0449 nM.

In the case of HER-E-40, the IC50 stood at 0.0362 nM.

For the substance HER-E-46, the IC50 is 0.0351 nM.

Take HER-E-48: the IC50 worked out at 0.109 nM.

In turn, HER-Vedotin [reference compound] had an IC50 of 0.0312 nM.
